For one substance, GOX activity results are on record in patent US20050113256A1, “Methods of reducing the nicotine content of tobacco plants and tobacco plants obtained thereby” (priority 2003, published 2005).

The conditions of the data set: GOX derived from A. niger, dry powder; U = one micromole of glucose per minute at about 25° C. and pH=7.

With glucose oxidase [Active GOX], the GOX activity lay in the range of 200 to 250 U/mg.
